Our source for the EC50 values is patent EP4810493A1, “HETEROCYCLIC CARBONYL DERIVATIVE MODULATOR, PREPARATION METHOD THEREFOR, AND USE THEREOF” (Shanghai Hansoh Biomedical Co., Ltd., priority 2023, dated 2025).

By UniProt entry, the sequences of proteins in these tests, tags left out.
UniProt P08173, whole entry: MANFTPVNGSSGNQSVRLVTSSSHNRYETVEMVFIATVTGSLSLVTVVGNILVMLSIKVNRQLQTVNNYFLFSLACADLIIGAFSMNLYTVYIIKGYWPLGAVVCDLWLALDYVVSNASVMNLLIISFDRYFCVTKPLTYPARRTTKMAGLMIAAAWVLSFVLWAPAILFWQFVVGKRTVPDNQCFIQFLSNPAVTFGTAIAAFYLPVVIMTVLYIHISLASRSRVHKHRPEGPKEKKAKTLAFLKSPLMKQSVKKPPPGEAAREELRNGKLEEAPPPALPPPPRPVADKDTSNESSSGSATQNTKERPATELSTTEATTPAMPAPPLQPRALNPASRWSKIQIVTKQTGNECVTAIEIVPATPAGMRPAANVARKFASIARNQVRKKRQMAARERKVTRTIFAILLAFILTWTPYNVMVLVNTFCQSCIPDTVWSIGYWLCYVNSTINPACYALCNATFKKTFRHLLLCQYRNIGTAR

The target in this assay is M4 receptor (Homo sapiens, UniProt P08173). The assay can be described thus: Calcium flux (FLIPR) potentiation assay in cells stably expressing M4 receptor. The format is cell-based. As to conditions: read-out: M4 FLIPR EC50; CHO-K1/M4/Gα15 cells; potentiation of acetylcholine (EC20) calcium flux. From the text: Test example 1. Determination of the effect of the compounds of the present invention on calcium current in cells stably expressing M1-M5 receptors
To detect the potentiating effect of compounds on calcium flux activity in CHO-K1/human M1/3/5 and CHO-K1/Gα15 M2/4 cells.
384-well assay plate, 384-well plate, FLIPR Tip, FLIPR Penta plate reader, Dispendix non-contact nanoliter dispensing system (liquid handling workstation), liquid handler.
Ham's F-12 Nutrient Mix, foetal bovine serum, P/S (Gibco: 15140122), HBSS (Gibco: 14025076), HEPES (Gibco: 15630080), FLIPR calcium 6 assay kit (Molecular Devices: R8190), Probenecid (PBA) (Invitrogen: P36400), Acetylcholine chloride (Sigma: A6625-25G) Complete culture medium: DMEM + 10% FBS + 1X P/S; Cell seeding medium: DMEM + 10% FBS + 1X PS; Assay buffer 1: 1X HBSS + 20 mM HEPES +2.5 mM Probenecid; Assay buffer 2: 1X HBSS + 20 mM HEPES; Cell line: CHO-K1/M1; CHO-K1/M2/Gα15; CHO-K1/M3; CHO-K1/M4/Gα15; CHO-K1/M5. […]
FLIPR Penta was used to read and collect the fluorescence signal value (RFU). The maximum RFU value was used to calculate the percent activation data based on the readings of the Low control (DMSO control group) and High control (ACh EC100) experimental groups {% activation rate = (RFUsample - RFUlow control) / (RFUhigh control - RFUlow control)×100}. […]

A word on the EC50: it is the concentration at which the effect is half-maximal.

For the compound `Cc1c2c(c3ncnn3c1C)CN(C(=O)CC1CN(c3cc(OC4CC4)ncc3Cl)C1)C2`, the EC50 worked out at 0.0339 µM.
